Key:
σ2 receptor = details: Figure 1 reference compounds and fluorescent ligands; cited from earlier work
σ1 receptor [1] = target: T1, σ1 receptor (Cavia porcellus, UniProt Q60492); assay: σ1 receptor radioligand binding assay with (+)-[3H]pentazocine, guinea pig brain membranes; details: guinea pig brain membranes without cerebellum
T1 construct: from tissue; host or cells: guinea pig brain without cerebellum (male Dunkin guinea pigs, Envigo)
Experimental: All of the procedures for the binding assays were previously described. σ1 and σ2 receptor binding assays were carried out according to the literature.[25] […] Incubations were stopped by addition of 1 mL of ice-cold buffer [50 mM TRIS (pH 8.0)], and then the suspension was filtered through GF/B presoaked in 0.3% polyethylenimine (PEI) for at least 60 min prior to use. The filters were washed twice with 1 mL of ice-cold buffer. […] Incubations were stopped by addition of 1 mL of ice-cold buffer [50 mM TRIS (pH 8.0)], and then the suspension was filtered through GF/B presoaked in 0.5% polyethylenimine (PEI) for at least 60 min prior to use. The filters were washed twice with 1 mL of ice-cold buffer. […] Scatchard parameters (Kd and Bmax) and apparent inhibition constants (Ki) were determined by nonlinear curve fitting using GraphPad Prism (version 5.0).[64]

Protein sequences, listed by entry. Tags and fused reporters are not part of them.
UniProt Q60492, whole entry: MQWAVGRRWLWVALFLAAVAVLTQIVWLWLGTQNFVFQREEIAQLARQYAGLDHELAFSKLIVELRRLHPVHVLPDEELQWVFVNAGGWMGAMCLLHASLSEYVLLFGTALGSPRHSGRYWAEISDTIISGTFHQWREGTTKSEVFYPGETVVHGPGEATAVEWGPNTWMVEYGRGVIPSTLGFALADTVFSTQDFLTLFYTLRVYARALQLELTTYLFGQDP

σ1 receptor [2] = details: Figure 1 reference compounds and fluorescent ligands; cited from earlier work

COc1cccc2c1CCCC2CCCN1CCN(C2CCCCC2)CC1 (stereo not drawn) [PB28, 1-cyclohexyl-4-[3-(5-methoxy-1,2,3,4-tetrahydronaphthalen-1-yl)propyl]piperazine]
Ki (σ2 receptor): 0.68 nM

CC(C)=CCN1CC[C@]2(C)c3cc(O)ccc3C[C@H]1[C@H]2C [(+)-[^3H]pentazocine, reference compound]
Bmax (σ1 receptor [1]): 500 fmol/mg of protein

Fc1ccc(-n2cc(CCCCN3CCC4(CC3)OCc3ccccc34)c3ccccc32)cc1 [siramesine]
Ki (σ1 receptor [2]): 10.5 nM
